Marks after values point to notes of the source that are not given here.
What was measured:
[1] = 12-hour levodopa plasma pharmacokinetics; assay type: in vivo, human (patients with PD); settings: for Levodopa FI / Levodopa t1/2: mean; for Levodopa AUCtotal / Levodopa FI (over all intakes): mean (%CV); for Levodopa AUCtotal, geometric mean (90% CI) / Levodopa FI, geometric mean (90% CI): N 12
Experimental: The study design is illustrated in Figure 1.
Pharmacokinetic evaluation occurred over 12 hours with sampling every 30 minutes, except for the last sample following each LD dose in the opicapone plus four LD intake regimen, which was sampled at 1 hour. The main pharmacokinetics parameters assessed included maximum observed plasma concentration (Cmax), time to achieve peak plasma levels (tmax), minimum observed plasma concentration (Cmin), plasma elimination half‐life (t1/2), area under the curve (AUC), and fluctuation index (FI; as an expression of peak‐to‐trough fluctuation, Cmax, and Cmin, relative to average concentration [Cavg]). The pharmacokinetics of the LD metabolite 3‐O‐methyldopa (3‐OMD) was also evaluated.
Descriptive statistics were used to summarize the pharmacokinetics parameters for LD and 3‐OMD for each of the three regimens. […] No formal comparison was performed between opicapone regimens.

[2] = 12-hour 3-O-methyldopa plasma pharmacokinetics; assay type: in vivo, human (patients with PD); settings: for 3-O-methyldopa AUCtotal, Geometric Mean (90% CI): N 12; for 3-O-methyldopa AUCtotal: mean (%CV)
[3] = five-intake LD/CD 500/125 mg vs five-intake LD/CD 400/100 mg plus opicapone 50 mg, fourth LD/CD intake
[4] = five-intake LD/CD 500/125 mg vs five-intake LD/CD 400/100 mg plus opicapone 50 mg
[5] = five-intake LD/CD 500/125 mg vs five-intake LD/CD 400/100 mg plus opicapone 50 mg, second LD/CD intake
[6] = five-intake LD/CD 500/125 mg vs five-intake LD/CD 400/100 mg plus opicapone 50 mg, third LD/CD intake
[7] = five-intake LD/CD 500/125 mg vs four-intake LD/CD 400/100 mg plus opicapone 50 mg, first LD/CD intake
[8] = five-intake LD/CD 500/125 mg vs four-intake LD/CD 400/100 mg plus opicapone 50 mg, fourth LD/CD intake
[9] = five-intake LD/CD 500/125 mg vs four-intake LD/CD 400/100 mg plus opicapone 50 mg
[10] = five-intake LD/CD 500/125 mg vs four-intake LD/CD 400/100 mg plus opicapone 50 mg, second LD/CD intake
[11] = five-intake LD/CD 500/125 mg vs four-intake LD/CD 400/100 mg plus opicapone 50 mg, third LD/CD intake
[12] = five-intake levodopa/carbidopa 500/125 mg vs five-intake levodopa/carbidopa 400/100 mg plus opicapone 50 mg
[13] = five-intake levodopa/carbidopa 500/125 mg vs four-intake levodopa/carbidopa 400/100 mg plus opicapone 50 mg
[14] = 5-intake LD/CD 500/125mg vs 4-intake LD/CD 400/100mg plus OPC 50mg, 1st LD/CD intake, mean
[15] = 5-intake LD/CD 500/125mg vs 5-intake LD/CD 400/100mg plus OPC 50mg, 1st LD/CD intake, mean

levodopa/carbidopa [LD/CD]
Levodopa FI [1, 3]: 112^d %
Levodopa t1/2 [1, 3]: 1.4^d h
Levodopa AUCtotal [1, 4]: 9310 (23.6) h · ng/mL
Levodopa FI (over all intakes) [1, 4]: 175.5 (24.9) %
Levodopa FI [1, 5]: 172^b %
Levodopa t1/2 [1, 5]: 1.4^b h
Levodopa FI [1, 6]: 148^d %
Levodopa t1/2 [1, 6]: 1.5^e h
Levodopa FI [1, 7]: 202%
Levodopa t1/2 [1, 7]: 1.1^a h
Levodopa FI [1, 8]: 118^d %
Levodopa t1/2 [1, 8]: 1.2^d h
Levodopa AUCtotal [1, 9]: 10,391 (23.4) h · ng/mL
Levodopa FI (over all intakes) [1, 9]: 166.9 (20.7) %
Levodopa FI [1, 10]: 176^c %
Levodopa t1/2 [1, 10]: 0.9^c h
Levodopa FI [1, 11]: 113^f %
Levodopa t1/2 [1, 11]: 1.3^g h
Levodopa AUCtotal, geometric mean (90% CI) [1, 12]: 9097 (8111, 10,202) h · ng/mL
Levodopa FI, geometric mean (90% CI) [1, 12]: 169.6 (145.9, 197.1) %
Levodopa AUCtotal, geometric mean (90% CI) [1, 13]: 10,126 (8940, 11,469) h · ng/mL
Levodopa FI, geometric mean (90% CI) [1, 13]: 163.7 (146.9, 182.3) %
3-O-methyldopa AUCtotal, Geometric Mean (90% CI) ([2]; 5-intake LD/CD 500/125mg vs 4-intake LD/CD 400/100mg +OPC 50mg): 41051 (34603, 48700) h•ng/mL
3-O-methyldopa FI [2, 14]: 12.9^a %
3-O-methyldopa t1/2 [2, 14]: 13.5^d h
3-O-methyldopa FI ([2]; 5-intake LD/CD 500/125mg vs 4-intake LD/CD 400/100mg plus OPC 50mg, 3rd LD/CD intake, mean): 9.87^b %
3-O-methyldopa FI ([2]; 5-intake LD/CD 500/125mg vs 4-intake LD/CD 400/100mg plus OPC 50mg, 4th LD/CD intake, 1 patient): 14.6^c %
3-O-methyldopa AUCtotal ([2]; 5-intake LD/CD 500/125mg vs 4-intake LD/CD 400/100mg plus OPC 50mg): 43080 (31.8) h*ng/mL
3-O-methyldopa AUCtotal, Geometric Mean (90% CI) ([2]; 5-intake LD/CD 500/125mg vs 5-intake LD/CD 400/100mg +OPC 50mg): 39650 (35181, 44687) h•ng/mL
3-O-methyldopa FI [2, 15]: 8.63^g %
3-O-methyldopa t1/2 [2, 15]: 15.2^b h
3-O-methyldopa t1/2 ([2]; 5-intake LD/CD 500/125mg vs 5-intake LD/CD 400/100mg plus OPC 50mg, 2nd LD/CD intake, 1 patient): 9.43^c h
3-O-methyldopa FI ([2]; 5-intake LD/CD 500/125mg vs 5-intake LD/CD 400/100mg plus OPC 50mg, 2nd LD/CD intake, mean): 19.7^d %
3-O-methyldopa FI ([2]; 5-intake LD/CD 500/125mg vs 5-intake LD/CD 400/100mg plus OPC 50mg, 3rd LD/CD intake, 1 patient): 10.3^c %
3-O-methyldopa AUCtotal ([2]; 5-intake LD/CD 500/125mg vs 5-intake LD/CD 400/100mg plus OPC 50mg): 40656 (24.2) h*ng/mL
